Drawing on patent US20060257934A1 (priority 2005, published 2006), this text covers EC50 for 1 compound.

Amino acid sequences for entries named in this document (tags omitted). Residues count along the entry.
UniProt P18508, 39-466: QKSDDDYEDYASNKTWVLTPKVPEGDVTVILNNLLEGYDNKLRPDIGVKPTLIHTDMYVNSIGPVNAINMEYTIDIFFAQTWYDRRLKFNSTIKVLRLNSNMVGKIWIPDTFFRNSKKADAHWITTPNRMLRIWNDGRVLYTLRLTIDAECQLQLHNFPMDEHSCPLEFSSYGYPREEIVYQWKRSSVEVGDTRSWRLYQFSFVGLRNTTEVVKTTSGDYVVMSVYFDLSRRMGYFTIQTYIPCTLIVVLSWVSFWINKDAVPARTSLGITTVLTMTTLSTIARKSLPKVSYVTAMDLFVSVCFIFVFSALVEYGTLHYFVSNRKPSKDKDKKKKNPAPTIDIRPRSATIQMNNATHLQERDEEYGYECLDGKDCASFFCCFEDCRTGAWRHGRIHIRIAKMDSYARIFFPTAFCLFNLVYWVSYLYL
UniProt P62813, 28-455: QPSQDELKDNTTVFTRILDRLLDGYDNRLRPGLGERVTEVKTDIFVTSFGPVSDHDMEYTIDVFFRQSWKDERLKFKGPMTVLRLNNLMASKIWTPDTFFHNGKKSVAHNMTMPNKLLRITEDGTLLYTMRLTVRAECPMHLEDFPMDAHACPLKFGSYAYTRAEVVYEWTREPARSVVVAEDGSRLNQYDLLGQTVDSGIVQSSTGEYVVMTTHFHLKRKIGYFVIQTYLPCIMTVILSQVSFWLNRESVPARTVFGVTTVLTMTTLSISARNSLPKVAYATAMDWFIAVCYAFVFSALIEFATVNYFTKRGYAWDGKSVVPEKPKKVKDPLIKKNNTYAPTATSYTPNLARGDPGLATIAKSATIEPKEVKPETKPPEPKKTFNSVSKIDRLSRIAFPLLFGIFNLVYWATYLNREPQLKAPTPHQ
UniProt P63138, 25-474 limits assumed: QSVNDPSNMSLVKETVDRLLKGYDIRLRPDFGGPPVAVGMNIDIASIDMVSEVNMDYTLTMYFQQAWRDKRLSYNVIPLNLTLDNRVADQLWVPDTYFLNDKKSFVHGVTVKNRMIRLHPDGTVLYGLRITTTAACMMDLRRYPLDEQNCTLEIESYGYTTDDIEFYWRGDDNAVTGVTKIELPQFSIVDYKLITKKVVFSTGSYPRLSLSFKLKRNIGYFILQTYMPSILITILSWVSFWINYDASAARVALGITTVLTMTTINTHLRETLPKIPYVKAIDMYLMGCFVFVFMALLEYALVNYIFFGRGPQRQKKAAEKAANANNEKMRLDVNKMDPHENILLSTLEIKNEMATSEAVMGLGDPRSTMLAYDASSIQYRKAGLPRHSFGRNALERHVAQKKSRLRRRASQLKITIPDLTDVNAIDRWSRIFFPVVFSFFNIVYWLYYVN

Molecules are shown by their SMILES.

In the assay the target is T1, GABAA receptor (rat α1β2 γ2) (Rattus norvegicus, UniProt P18508+P62813+P63138).
T1 construct: expressed in transfected cells
Briefly: cell-based. To be noted: read-out: EC50, positive modulation of GABA-induced response.

Broadly, the EC50 is the concentration that produces a half-maximal response. For the compound `CC(=O)[C@H]1CC[C@H]2[C@@H]3CC[C@H]4C[C@H](O)CC[C@]4(C)[C@H]3CC[C@]12C` [allopregnanolone], the EC50 stood at 42.5 ± 16.9 nM.
